Assays:
[1] = Selectivity index, ratio of IC50 for inhibition of APN (unknown origin) to IC50 for inhibition of recombinant mouse APA
[2] = biological target: Aminopeptidase A (Rattus norvegicus) (UniProt P50123); test: In vivo inhibition of aminopeptidase A in alert male spontaneously hypertensive rat model assessed as decrease in APA activity in brain by measuring hydrolyzed GlubetaNa at 2 mg/kg, iv measured after 30 mins; assay type: functional, organism-based
[3] = biological target: Aminopeptidase A (Rattus norvegicus) (UniProt P50123); test: In vivo inhibition of aminopeptidase A in alert male spontaneously hypertensive rat model assessed as decrease in cardiac APA activity by measuring hydrolyzed GlubetaNa at 2 mg/kg, iv measured after 30 mins; assay type: functional, organism-based
[4] = biological target: Aminopeptidase A (Rattus norvegicus) (UniProt P50123); test: In vivo inhibition of aminopeptidase A in alert male spontaneously hypertensive rat model assessed as decrease in renal APA activity by measuring hydrolyzed GlubetaNa at 2 mg/kg, iv measured after 30 mins; assay type: functional, organism-based
Homo sapiens = organism: Homo sapiens; test: Potency index, ratio of (S)-3-amino-4-mercaptobutane-1-sulfonic acid Ki to test compound Ki for inhibition of APA (unknown origin)
[5] = biological target: Aminopeptidase A (Rattus norvegicus) (UniProt P50123); test: In vivo inhibition of aminopeptidase A in alert male spontaneously hypertensive rat model assessed as decrease in APA activity in brain by measuring hydrolyzed GlubetaNa at 100 mg/kg, iv measured after 30 mins; assay type: functional, organism-based

Chains of the proteins cited; added tags and fusions are not shown.
UniProt P50123, whole entry: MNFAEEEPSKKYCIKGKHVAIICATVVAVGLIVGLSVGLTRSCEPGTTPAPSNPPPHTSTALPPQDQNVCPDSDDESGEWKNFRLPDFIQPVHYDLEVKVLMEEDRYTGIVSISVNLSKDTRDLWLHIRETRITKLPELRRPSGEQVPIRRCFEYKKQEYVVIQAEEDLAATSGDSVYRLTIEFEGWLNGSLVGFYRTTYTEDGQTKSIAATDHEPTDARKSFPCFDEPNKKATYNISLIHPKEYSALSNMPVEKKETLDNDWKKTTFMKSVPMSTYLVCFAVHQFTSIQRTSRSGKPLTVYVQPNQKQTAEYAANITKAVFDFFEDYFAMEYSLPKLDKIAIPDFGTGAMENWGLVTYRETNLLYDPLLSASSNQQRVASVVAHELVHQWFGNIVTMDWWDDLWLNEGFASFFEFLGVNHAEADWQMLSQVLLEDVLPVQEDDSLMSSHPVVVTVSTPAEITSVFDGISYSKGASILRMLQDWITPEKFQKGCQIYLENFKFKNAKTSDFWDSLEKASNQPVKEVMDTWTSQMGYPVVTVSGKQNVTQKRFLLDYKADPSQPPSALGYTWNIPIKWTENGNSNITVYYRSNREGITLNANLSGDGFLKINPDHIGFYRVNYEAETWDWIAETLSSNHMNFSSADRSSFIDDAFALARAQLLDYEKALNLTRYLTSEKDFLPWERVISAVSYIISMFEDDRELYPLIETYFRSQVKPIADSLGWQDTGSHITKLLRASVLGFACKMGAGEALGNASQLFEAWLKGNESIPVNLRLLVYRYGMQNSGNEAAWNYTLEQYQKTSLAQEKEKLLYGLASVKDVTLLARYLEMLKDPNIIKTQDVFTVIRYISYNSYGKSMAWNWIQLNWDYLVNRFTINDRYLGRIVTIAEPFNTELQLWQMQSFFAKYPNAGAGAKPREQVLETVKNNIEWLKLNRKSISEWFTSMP

Structure (SMILES): COc1ccccc1CCP(=O)(O)[C@@H](N)CCC(=O)O
- Ratio IC50 [1]: > 5000
- Activity [2]: 25.5 nmol/mg/h
- Activity [3]: 17 nmol/mg/h
- Activity [4]: 1890 nmol/mg/h

Structure (SMILES): N[C@@H](CCS(=O)(=O)O)[C@@H](S)CCc1ccccc1
- Ratio Ki (Homo sapiens): 10

Structure (SMILES): N[C@@H](CCS(=O)(=O)O)CSSC[C@@H](N)CCS(=O)(=O)O
- Activity [5]: 14.7 nmol/mg/h
